Earlier results as cited in patent US12458587B2, “Hypoallergenic composition for skin regeneration or skin soothing, containing culture product or extract of Aureobasidium pullulans strain” (AMOREPACIFIC CORPORATION, priority 2018, dated 2025).

System: chorioallantoic membrane (CAM)
Settings: application period of 5 minutes, cited from earlier work

Substance: sodium magnesium lauryl-myristyl-6-ethoxy-sulfate [Texapon Asv®]
- degree of stimulation (vascular response of CAM) (0.5%): weak hemorrhage and lysis
- degree of stimulation (vascular response of CAM) (1.0%): moderate hemorrhage and lysis
- degree of stimulation (vascular response of CAM) (5.0%): strong hemorrhage and lysis

Where two headings read alike, the source gives them in different places.
